Values quoted from earlier work in US20170333404A1, “IMPROVED FORMULATIONS OF VEMURAFENIB AND METHODS OF MAKING THE SAME” (DISPERSOL TECHNOLOGIES, LLC, priority 2014, published 2017).

System: BRAFV600E/K mutant advanced or malignant melanoma
Settings: MEKi class effect

In the case of `CC(=O)Nc1cccc(-n2c(=O)n(C3CC3)c(=O)c3c(Nc4ccc(I)cc4F)n(C)c(=O)c(C)c32)c1` [Trametinib], the chorioretinopathy is given as less than 1% and the decreased ejection fraction is given as 7%.
